From patent publication US9321773B2, “Compounds” (Respivert Ltd, priority 2009, dated 2016)
Like-named read-outs stand apart in the source and are kept apart here.

By UniProt entry, the sequences of proteins in these tests, tags left out.
UniProt P42336, whole entry: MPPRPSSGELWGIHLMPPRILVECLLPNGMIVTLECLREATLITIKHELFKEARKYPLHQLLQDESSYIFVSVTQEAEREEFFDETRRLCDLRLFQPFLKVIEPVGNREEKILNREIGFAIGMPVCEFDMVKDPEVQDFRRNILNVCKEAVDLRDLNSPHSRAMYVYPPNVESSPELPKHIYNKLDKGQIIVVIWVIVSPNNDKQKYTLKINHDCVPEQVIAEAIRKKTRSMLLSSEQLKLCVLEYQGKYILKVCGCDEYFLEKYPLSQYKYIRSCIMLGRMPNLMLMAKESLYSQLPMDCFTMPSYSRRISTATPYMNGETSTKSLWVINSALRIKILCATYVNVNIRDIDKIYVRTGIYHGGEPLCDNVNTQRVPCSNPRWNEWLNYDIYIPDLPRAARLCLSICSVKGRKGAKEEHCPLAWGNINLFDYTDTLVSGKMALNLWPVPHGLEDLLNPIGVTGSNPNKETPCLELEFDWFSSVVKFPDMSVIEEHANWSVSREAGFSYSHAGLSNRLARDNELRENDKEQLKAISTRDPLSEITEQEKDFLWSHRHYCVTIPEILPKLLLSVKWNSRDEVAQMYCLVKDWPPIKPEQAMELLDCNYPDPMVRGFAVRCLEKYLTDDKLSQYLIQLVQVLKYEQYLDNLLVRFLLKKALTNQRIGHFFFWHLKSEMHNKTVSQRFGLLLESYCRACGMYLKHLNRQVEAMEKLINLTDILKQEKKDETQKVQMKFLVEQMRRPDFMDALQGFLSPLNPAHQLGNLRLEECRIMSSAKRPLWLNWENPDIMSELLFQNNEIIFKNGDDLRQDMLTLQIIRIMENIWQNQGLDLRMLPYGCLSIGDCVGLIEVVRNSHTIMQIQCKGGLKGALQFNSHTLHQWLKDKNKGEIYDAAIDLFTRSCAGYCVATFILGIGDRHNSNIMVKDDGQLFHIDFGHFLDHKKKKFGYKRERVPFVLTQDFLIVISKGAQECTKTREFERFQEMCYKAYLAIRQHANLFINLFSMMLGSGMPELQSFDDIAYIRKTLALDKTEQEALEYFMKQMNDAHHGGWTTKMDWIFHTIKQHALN

Biological target: recombinant PI3 kinase α (Homo sapiens (Human), UniProt P42336)
Assay: Enzyme Inhibition Assay (HTRF PI3K enzyme assay, TR-FRET)
Format: biochemical
From the text: PI3 kinases catalyse the phosphorylation of phosphatidylinositol 4,5-biphosphate (PIP2) to phosphatidylinositol 3,4,5-triphosphate (PIP3) in the presence of ATP and Mg^2+ ions. The PIP3 product can be detected by displacement of biotin-PIP3 from energy transfer complexes consisting of europium labelled anti-GST monoclonal antibody, a GST-tagged Pleckstrin homology (PH) domain, biotinylated PIP3 and streptavidin-allophycocyanin (APC) by the time-resolved fluorescence resonance energy transfer (TR-FRET) (HTRF® PI3K enzyme assay, Millipore). […] The PIP3 product formed by PI3K activity displaces biotin-PIP3 from the complex and results in a loss of energy transfer (decreasing signal).
The compound to be tested was added, at the desired final concentrations, to a mixture of PIP2 substrate and recombinant PI3 kinase α, δ or γ enzymes (Millipore), and the mixture incubated for 2 hr at RT. […] A stopping solution containing biotinylated PIP3 and the detection mix containing the GST tagged GRP1 pleckstrin homology (PH) domain and fluorophores were then added and the mixture was incubated at RT for 15-18 hr, prior to detection in a fluorescence microplate reader (Varioskan® Flash, ThermoFisher Scientific).

Nc1ncnc2c1c(-c1ccc(O)cc1)nn2Cc1nc2cccc(C#CCCCC(=O)O)c2c(=O)n1Cc1ccccc1Cl [Example 4, 6-(2-((4-Amino-3-(4-hydroxyphenyl)-1H-pyrazolo[3,4-d]pyrimidin-1-yl)methyl)-3-(2-chlorobenzyl)-4-oxo-3,4-dihydroquinazolin-5-yl)hex-5-ynoic acid]
IC50 (activity range, read-out: PI3 Kinase Inhibition IC50 values at stated Isozyme α): < 50 nM
IC50 (read-out: PI3 Kinase Inhibition IC50 values at stated Isozyme (nM) α): 17 nM
